In this data set the test system is spermatozoa. The note with it: construct 0.1 mg/mL. The method, then:
Spermatozoa were washed and isolated by layering 1.1 mL of fresh semen over a gradient of SpermGrad 125 (Vitrolife 10099; 2 mL of 40% solution over 2 mL of 80% solution in a 15 mL round bottom tube) and centrifuging at 500×g for 20 min.
The bottom layer of the gradient (c. 0.7 mL was transferred to 4 mL round bottom tubes and c. 2 mL flushing (handling) media (Medicult 10840125A) added. The tube was centrifuged at 300×g for 10 min and the spermatozoa washed two more times (mixing by tube inversion).
Samples of washed spermatozoa were incubated overnight at 37° C. in a 5% CO2 atmosphere.
Open tubes were incubated at 37° C. in a 5% CO2 atmosphere prior to addition of c. 70 μL spermatozoa (c. 25×10^6/mL) to each tube and incubation for 120 min (A), 60 min (B), 30 min (C), 10 min […] and 120 min (E).
Following incubation a couple of drops of flushing media were added and the tubes centrifuged at 300×g for 5 min. The spermatozoa were washed two more times with flushing media and before being re-suspended in culture media to a final volume of 100 μL.
Streptavidin beads at a concentration of c. 6.25×10^6/100 μL were diluted 35 times in BSA plus flushing media to provide a ratio of 0.1 beads/spermatozoa when mixed in equal volume with a diluted suspension of the modified spermatozoa. […]
The assessment of the attachment of streptavidin beads to modified spermatozoa is recorded in Table 27.

Take Biotin-CMG(2)-Ad-DOPE: the “motile capacity of spermatozoa after attachment of streptavidin beads” value is listed as “retain motile capacity”.
